{"source": "patent US8394442B2", "about": "“Process for the preparation of a flavoring concentrate, and a flavoring concentrate” (SYMRISE AG, priority 2007, dated 2013)", "assay": "log Pow: distribution coefficient between 1-octanol and water", "details": "1-octanol/water"}
{"smiles": "CCCCCCOC(C)=O", "note": "[Hexylacetate]", "values": [{"measurement": "log Pow", "result": 2.83}]}
